According to PubChem BioAssay AID901 (National Center for Advancing Translational Sciences (NCATS), 2007):
The entries are a selection whose mix differs from that of the whole data set. Inconclusive results are not listed. Calls of active or inactive are those of the source. Calls come from the whole dose curve; as a rule, active = well fitted curve in the direction sought with a large enough effect in the signal ratio (not every such curve was filed as active); inconclusive = small, poorly fitted or top-dose-only effect, or a change in a side signal; inactive = no such curve, though single readings can be large or run the other way; the % refers to the signal ratio.
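Note: plate controls were DMSO basal wells for no effect and reference inhibitor wells for full effect; higher means more IMPase inhibition seen as more IP1 and lower FRET ratio.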

By UniProt entry, the sequences of proteins in these tests, tags left out.
UniProt P97697, whole entry: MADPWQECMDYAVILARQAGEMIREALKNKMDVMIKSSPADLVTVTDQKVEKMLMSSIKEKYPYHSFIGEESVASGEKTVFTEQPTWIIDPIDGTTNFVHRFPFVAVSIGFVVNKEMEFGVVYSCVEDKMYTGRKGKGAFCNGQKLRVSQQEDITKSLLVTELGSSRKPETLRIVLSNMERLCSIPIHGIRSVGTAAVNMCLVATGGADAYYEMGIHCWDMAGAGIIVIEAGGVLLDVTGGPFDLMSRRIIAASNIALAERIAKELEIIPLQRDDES

What follows are compounds tested against Inositol monophosphatase 1 (Rattus norvegicus) (UniProt P97697) (assay: qHTS Assay for Identifying the Cell-Membrane Permeable IMPase Inhibitors). Conditions: CHO-M1 cells, HTRF TR-FRET ratio; at 46.1 µM (top of the series) unless noted.
Text: NCGC IMPase Assay Overview
Lithium has been widely used for the treatment of bipolar disorder. But lithium has a narrow therapeutic index and it can cause side effects such as thirst, weight gain, tremor, polyuria and memory problems. Although the mechanism for lithium action in treatment of bipolar disorder is still not fully understood, inhibition of inositol monophosphatase (IMPase) and the subsequent depletion of the inositol pool in living cells have been implicated as the primary therapeutic benefit of lithium therapy. Therefore, a selective IMPase inhibitor with reduced side effects might be a good drug candidate to replace lithium for the treatment of bipolar disorder. Several IMPase inhibitors have been discovered previously. However, they are not suitable for therapeutic use because of their poor cell membrane penetrability or oral bioavailability; the development of new cell-permeable IMPase inhibitors is needed.
IMPase catalyzes the hydrolysis of inositol-1-phosphate (IP1) to release free inositol. Binding of an agonist to a Gq coupled GPCR results in the activation of PLC, which hydrolyzes the PIP2 to form inositol-1,4,5-trisphosphate (IP3) and diacyl glycerol (DAG). While DAG activates protein kinase C (PKC), IP3 triggers the elevation of intracellular free Ca2+. The IP3 is very rapidly inactivated by hydrolysis to IP2, IP1 and then inositol by a series of enzymes including IMPase. Free inositols are used for synthesis of PI and thus start another inositol cycle.
To identify new cell-permeable IMPase inhibitors, we developed a cell-based IMPase assay in which the cytosolic IP1 is measured by a time-resolved fluorescence resonance energy transfer (TR-FRET) assay. In this assay, an IP1 specific antibody is used to detect the labeled IP1 tracer. When the cell lysate contains the elevated IP1 due to the inhibition of IMPase, the TR-FRET between the labeled antibody and IP1 tracer is disrupted resulting in a reduction in the total signal. Since the TR-FRET is used, this cell-based assay is a homogenous assay without cell wash and medium change that is suitable for assay miniaturization and HTS.
NCGC IMPase Assay Protocol Summary
A Chinese hamster ovary (CHO) cell line stably expressing the M1 receptor (CHO-M1) was obtained from ATCC and maintained in F-12 Kaighn's media (Invitrogen, Carlsbad, CA, 21127) supplemented with 10 % FBS, 100 units/ml penicillin, 100 ug/ml streptomycin and 250 ug/ml geneticin at 37C, 5% CO2 in a humidified atmosphere. Before the assay, aliquots of cells were frozen and stored at -135C. The assay was performed in 1536-well format. Data are reported for both the ratio of the two emission wavelengths, and also for the component 'donor' channel, Em2=620. […] AC50 values were determined from concentration-response data modeled with the standard Hill equation.
IMPase 1536-well assay protocol:
(1) Plate 4 ul/well (2000 cells) of cell suspension from frozen CHO-M1 Cells in white, tissue culture treated 1536-well plates that are cultured at 37C, 5 % CO2 for 16 to 30 hours.
(2) Add 23 nl/well of compound in DMSO solution. The final titration for each compound was between 0.6 nM and 46 uM.
(3) Add 1 ul of carbachol (50 uM in stimulation buffer containing10mM HEPES, 1mM CaCl2, 0.5 mM MgCl2, 4.2 mM KCl, 146 mM NaCl, 5.5 mM glucose, 50mM LiCl, pH 7.4.
(4) Incubation at 37C, 5 % CO2 for 30 min.
(5) Add 1 ul/well of d2-conjugated IP1 (d2-IP1) and 1 ul/well of Eu+ cryptate conjugated anti-IP1 antibody (Eu+-Ab) prepared in the cell lysis buffer, both from the IP-One kit (Cisbio, MA).
(6) Incubate at room temperature for 10 minutes.
(7) Detect the assay plate (Ex = 320, Em1 =665 and Em2 620) in a ViewLux plate reader.
inositol monophosphatase, IMPase, IMPase inhibitor, lithium, bipolar disorder, IP-One, HTRF, qHTS, NIH roadmap, NCGC
Note: In the gene ID and protein GI references for this assay, rat IMPase is referenced instead of hampster as hamster accession numbers were not available.
With `Cc1ccc(C)c(NP(C)(=O)Oc2ccccc2)c1` (stereo not given) the inhibition (IP1 accumulation) was inactive: -1.62%. `Cc1cc(C)cc(OP(C)(=O)Nc2ccccn2)c1` (stereo not given) was tested, and the inhibition (IP1 accumulation) was inactive: 4.28%. With `Cc1cc(C)cc(OP(C)(=O)Nc2ccc(C)cc2C)c1` (stereo not given) the inhibition (IP1 accumulation) was inactive: -6.41%. For `COc1ccccc1OP(C)(=O)Nc1c(C)cccc1C` (stereo not given), the inhibition (IP1 accumulation) was inactive: 2.2%. `Cc1nc2ccc3ccccc3c2s1.O=[N+]([O-])c1cc([N+](=O)[O-])c(O)c([N+](=O)[O-])c1` was tested, and the inhibition (IP1 accumulation) was inactive: -1.16%. `CP(=O)(Nc1ccccn1)Oc1ccc(Cl)cc1` (stereo not given) was tested, and the inhibition (IP1 accumulation) was inactive: 25.6%. In the case of `CCOC(=O)c1ccc(NP(C)(=O)Oc2ccc(OC)cc2)cc1` (stereo not given), the inhibition (IP1 accumulation) is reported as inactive: -0.648%. For `CCOP(C)(=S)SCC(=O)NC(C)C(=O)O` (stereo not given), the inhibition (IP1 accumulation) was inactive: -4.78%. `CP(=O)(NC(=O)Nc1ccccc1)Oc1ccccc1` (stereo not given) was tested, and the inhibition (IP1 accumulation) was inactive: 0.52%. `Cc1cc(C)cc(OP(C)(=O)Nc2ccc(SC(F)(F)F)cc2)c1` (stereo not given) was tested, and the inhibition (IP1 accumulation) was inactive: 1.35%. For `Cc1cccc(C)c1OP(C)(=O)Nc1ccc(SC(F)(F)F)cc1` (stereo not given), the inhibition (IP1 accumulation) was inactive: 10.2%. `CP(=S)(Nn1cnnc1)Oc1ccccc1` (stereo not given) was tested, and the inhibition (IP1 accumulation) was inactive: -0.0011%. For `COc1ccc(OP(C)(=O)Nc2cccc(F)c2)cc1` (stereo not given), the inhibition (IP1 accumulation) was inactive: 4.15%. `COc1ccccc1OP(C)(=O)Nc1ccc(C)cc1` (stereo not given) was tested, and the inhibition (IP1 accumulation) was inactive: -1.13%. For `Cc1ccc(NP(C)(=O)Oc2ccccc2)c(C)c1` (stereo not given), the inhibition (IP1 accumulation) was inactive: 6.42%. In the case of `CP(=O)(Nc1ccccn1)Oc1ccccc1` (stereo not given), the inhibition (IP1 accumulation) is reported as inactive: -1.05%. For `COc1ccccc1OP(C)(=O)Nc1ccc(C)cc1C` (stereo not given), the inhibition (IP1 accumulation) was inactive: 14.3%. With `CCc1ccc(OP(C)(=O)O)cc1` the inhibition (IP1 accumulation) was inactive: 3.48%. With `Cc1c(NP(C)(=O)Oc2ccc(C(C)C)cc2)c(=O)n(-c2ccccc2)n1C` (stereo not given) the inhibition (IP1 accumulation) was inactive: 0.984%. With `COc1ccc(OP(C)(=O)Nc2ccccn2)cc1` (stereo not given) the inhibition (IP1 accumulation) was inactive: -0.357%. With `CN(C)CCOC(=O)C(O)(c1ccccc1)C1CCCC1` (stereo not given) the inhibition (IP1 accumulation) was inactive: 15.4%. `Cc1nc2ccc3ccccc3c2o1.O=[N+]([O-])c1cc([N+](=O)[O-])c(O)c([N+](=O)[O-])c1` was tested, and the inhibition (IP1 accumulation) was inactive: 6.95%. In the case of `COc1ccccc1OP(C)(=O)Nc1ccc(C)c(C)c1` (stereo not given), the inhibition (IP1 accumulation) is reported as inactive: 1.01%. `COc1ccc(OP(C)(=O)Nc2ccccc2Br)cc1` (stereo not given) was tested, and the inhibition (IP1 accumulation) was inactive: 1.82%. For `C/C1=C2N=C(/C=C3N=C(/C(C)=C4\[N-][C@@](C)([C@H]5N=C1[C@@](C)(CCC(=O)NC[C@H](C)OP(=O)([O-])O[C@@H]1[C@H](O)[C@H](n6cnc7cc(C)c(C)cc76)O[C@@H]1CO)[C@@H]5CC(N)=O)[C@](C)(CC(N)=O)[C@H]4CCC(N)=O)[C@@](C)(CC(N)=O)[C@@H]\3CCC(N)=O)C(C)(C)[C@@H]/2CCC(N)=O.[C-]#N.[Co+3]`, the inhibition (IP1 accumulation) was inactive: -11.2% [at 20.6 µM]. With `CP(=O)(OC12CC3CC(CC(C3)C1)C2)OC12CC3CC(CC(C3)C1)C2` the inhibition (IP1 accumulation) was inactive: -5.86%. With `CC(C)(C)c1ccc(OP(C)(=O)O)cc1` the inhibition (IP1 accumulation) was inactive: 9.28%. In the case of `CP(=O)(Nc1ccc(Cl)cc1)Oc1ccc(F)cc1` (stereo not given), the inhibition (IP1 accumulation) is reported as inactive: 4.87%. `COc1ccccc1OP(C)(=O)Nc1c(C)n(C)n(-c2ccccc2)c1=O` (stereo not given) was tested, and the inhibition (IP1 accumulation) was inactive: 2.88%. In the case of `CP(=O)(Oc1ccccc1)N1CCOC1=O` (stereo not given), the inhibition (IP1 accumulation) is reported as inactive: 2.98%. For `CCN(CC)CC(O)COC(=O)C(O)(c1ccccc1)C1CCCCC1` (stereo not given), the inhibition (IP1 accumulation) was inactive: 10.3%. In the case of `N#[O+].[C-]#N.[C-]#N.[C-]#N.[C-]#N.[C-]#N.[Fe+2].[Na+].[Na+]`, the inhibition (IP1 accumulation) is reported as inactive: -2.3%. In the case of `Cc1ccccc1NP(C)(=O)Nc1ccccc1C`, the inhibition (IP1 accumulation) is reported as inactive: -6.06%. For `CP(=O)(Nc1ccc2c(c1)OCCO2)Oc1ccccc1` (stereo not given), the inhibition (IP1 accumulation) was inactive: -4.98%. `CCOP(C)(=S)SCC(=O)NC(C)(CC)C(=O)O` (stereo not given) was tested, and the inhibition (IP1 accumulation) was inactive: -10.5% [at 1.84 µM]. For `CN(C)CCOC(=O)C(O)(c1ccccc1)C1CCCCC1` (stereo not given), the inhibition (IP1 accumulation) was inactive: 35.1%. In the case of `COc1ccc(OP(C)(=O)Nc2cccc(Br)c2)cc1` (stereo not given), the inhibition (IP1 accumulation) is reported as inactive: 4.01%. `CP(=O)(Nc1ccccc1)Oc1ccc(F)cc1` (stereo not given) was tested, and the inhibition (IP1 accumulation) was inactive: 0.65%. In the case of `CCN(CC)CCCOC(=O)C(O)(c1ccccc1)C1CCCCC1` (stereo not given), the inhibition (IP1 accumulation) is reported as inactive: 18.2%. In the case of `CP(=O)(Nc1ccccc1F)Oc1ccccc1` (stereo not given), the inhibition (IP1 accumulation) is reported as inactive: -3.45%.
